The record followed here is patent US20260062443A1 (ALEXION PHARMACEUTICALS, INC., priority 2022, published 2026).

Protein sequences, listed by entry. Tags and fused reporters are not part of them. Residues count along the entry.
UniProt P09871, 438-688 limits assumed: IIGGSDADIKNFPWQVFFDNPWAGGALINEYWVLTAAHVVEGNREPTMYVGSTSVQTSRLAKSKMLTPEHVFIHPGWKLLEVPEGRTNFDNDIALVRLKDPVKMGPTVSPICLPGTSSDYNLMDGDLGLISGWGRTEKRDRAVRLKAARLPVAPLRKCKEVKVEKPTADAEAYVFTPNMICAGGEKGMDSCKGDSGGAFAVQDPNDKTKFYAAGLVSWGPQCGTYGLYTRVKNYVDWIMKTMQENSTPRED
UniProt P09871, 16-437 partner limits assumed: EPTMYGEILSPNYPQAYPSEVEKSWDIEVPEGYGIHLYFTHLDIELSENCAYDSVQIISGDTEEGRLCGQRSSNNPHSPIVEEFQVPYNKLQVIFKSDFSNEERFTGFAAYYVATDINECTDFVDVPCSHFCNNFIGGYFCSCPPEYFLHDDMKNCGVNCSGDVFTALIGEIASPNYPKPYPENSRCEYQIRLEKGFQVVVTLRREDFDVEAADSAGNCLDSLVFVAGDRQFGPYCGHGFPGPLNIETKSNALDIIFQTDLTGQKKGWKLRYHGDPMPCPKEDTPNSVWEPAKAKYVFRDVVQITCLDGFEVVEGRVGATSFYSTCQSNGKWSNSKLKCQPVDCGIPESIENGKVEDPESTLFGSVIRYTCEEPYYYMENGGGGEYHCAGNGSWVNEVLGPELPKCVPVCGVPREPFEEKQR

A word on the IC50: it is the midpoint of a concentration-inhibition curve.

Each structure is given as a SMILES string. Bounds are passed on as bounds.

The target of the assay is Human complement C1s enzyme (Homo sapiens, UniProt P09871). In words: Human C1s enzyme assay. Format: biochemical. As to conditions: read-out: IC50 (Stars), C1s Inhibiting Activity; human complement C1s enzyme 1.16 nM, substrate Z-L-Lys-SBzl 100 μM, 5 min preincubation. As to the method:
Other standard complement assays are also available.
Human complement C1s enzyme (purified from human serum, Complement Technology, Inc.) at 1.16 nM final concentration was incubated with test compound at various concentrations for 5 min at room temperature in 50 mM Tris, 1 M NaCl, pH 7.5. A synthetic substrate Z-L-Lys-SBzl and DTNB (Ellman's reagent) were added to final concentrations of 100 μM each. Absorbance at 405 nm (A405) was recorded at 30 second intervals for 30 min using a microplate spectrophotometer. IC50 values were calculated by nonlinear regression of complement C1 s reaction rates as a function of test compound concentration.
ND indicates a compound for which the IC50 value is not determined.
For the compound `C[C@@H](NC(=O)[C@@H]1CC(CN2CCCCC2)CN1C(=O)CNC(=O)c1ccc2c(c1)Oc1ccccc1S2)c1cc2cnccc2[nH]1` (some centres unmarked), the concentration for half-maximal inhibition (IC50) was under 0.1 µM.

Consider `Cc1ccc(Oc2cc(F)cc(C(=O)NCC(=O)N3C[C@H](OC(F)F)C[C@H]3C(=O)NCc3cc4cnccc4[nH]3)c2)c(F)c1`, for which the half-maximal inhibitory concentration (IC50) is under 0.1 µM.

`C[C@@H](NC(=O)[C@@H]1C[C@H](Cn2ccnn2)CN1C(=O)CNC(=O)c1ccc2c(c1)Oc1ccccc1S2)c1cc2cnccc2[nH]1`: the concentration for half-maximal inhibition (IC50) is under 0.1 µM.

In the case of `C[C@@H](NC(=O)[C@@H]1C[C@@H](Cn2ccnn2)CN1C(=O)CNC(=O)c1ccc2c(c1)Oc1ccccc1S2)c1cc2cnccc2[nH]1` (relative stereo), the half-maximal inhibitory concentration (IC50) is under 0.1 µM.

In the case of `O=C(NCC(=O)N1C[C@H](OC(F)F)C[C@H]1C(=O)NCc1cc2cnccc2[nH]1)c1cnc2c(c1)Oc1ccccc1S2`, the IC50 was under 0.1 µM.

Consider `O=C(NCC(=O)N1C[C@H](OC(F)F)C[C@H]1C(=O)NCc1cnc2cc[nH]c2c1)c1ccc2c(c1)Oc1ccccc1S2`, for which the concentration for half-maximal inhibition (IC50) is over 1 µM.

As for `C[C@@H](NC(=O)[C@@H]1C[C@@H](Oc2ccccc2)CN1C(=O)CNC(=O)c1ccc2c(c1)Oc1ccccc1S2)c1cc2cnccc2[nH]1`, the IC50 is under 0.1 µM.

In the case of `COc1ccc(Oc2ccc(C)cc2F)cc1C(=O)NCC(=O)N1C[C@H](OC(F)F)C[C@H]1C(=O)NCc1cc2cnccc2[nH]1`, the concentration for half-maximal inhibition (IC50) was under 0.1 µM.
